{"source": "PubChem BioAssay AID539", "about": "(SRMLSC, 2006)", "note": "The list shows a part of the results, in another mix than the full data. Some results for these compounds are left out of this collection, so the calls shown say nothing about other tests. The source made the active and inactive calls.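 The calls were made as follows: active = top-ranked compounds by inhibition in the single 10 µM screen, taking a fixed number of the strongest; inactive = the rest, inconclusive results apart.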", "data": [{"test_system": "phosphomevalonate kinase (Streptococcus pneumoniae D39)", "experiment": "phosphomevalonate kinase enzyme inhibition – biochemical, mevalonate pathway, pilot trial included, primary screen (AID 539);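 also: 0% = full reaction with DMSO carrier and 100% = background rate without enzyme reaction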", "settings": "purified PMK, PK/LDH-coupled NADH absorbance 340 nm; at 10 µM; active compounds read high", "values": [{"smiles": "CN(C)c1cccc(C(=O)NCC2(N(C)C)CCCCC2)c1", "inhibition": "inactive: 18%"}, {"smiles": "O=C(OC1CN2CCC1CC2)C(CO)(c1ccccc1)c1ccccc1", "note": "(configuration not stated)", "inhibition": "inactive: 9%"}]}]}
